Measured values reported in US9259422B2, “Orvinol and thevinol derivatives useful in the treatment of depression” (dated 2016).

By UniProt entry, the sequences of proteins in these tests, tags left out.
UniProt P41146, whole entry: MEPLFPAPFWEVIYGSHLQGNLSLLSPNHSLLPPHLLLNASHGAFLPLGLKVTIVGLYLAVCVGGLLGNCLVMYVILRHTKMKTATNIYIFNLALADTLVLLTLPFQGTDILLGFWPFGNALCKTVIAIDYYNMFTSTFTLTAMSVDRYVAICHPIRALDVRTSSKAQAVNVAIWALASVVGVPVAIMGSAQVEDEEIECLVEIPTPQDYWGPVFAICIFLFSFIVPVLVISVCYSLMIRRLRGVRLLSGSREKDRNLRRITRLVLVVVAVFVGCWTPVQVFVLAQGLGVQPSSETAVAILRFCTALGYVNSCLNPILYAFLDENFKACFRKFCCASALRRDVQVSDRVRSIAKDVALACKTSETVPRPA
UniProt P33535, whole entry: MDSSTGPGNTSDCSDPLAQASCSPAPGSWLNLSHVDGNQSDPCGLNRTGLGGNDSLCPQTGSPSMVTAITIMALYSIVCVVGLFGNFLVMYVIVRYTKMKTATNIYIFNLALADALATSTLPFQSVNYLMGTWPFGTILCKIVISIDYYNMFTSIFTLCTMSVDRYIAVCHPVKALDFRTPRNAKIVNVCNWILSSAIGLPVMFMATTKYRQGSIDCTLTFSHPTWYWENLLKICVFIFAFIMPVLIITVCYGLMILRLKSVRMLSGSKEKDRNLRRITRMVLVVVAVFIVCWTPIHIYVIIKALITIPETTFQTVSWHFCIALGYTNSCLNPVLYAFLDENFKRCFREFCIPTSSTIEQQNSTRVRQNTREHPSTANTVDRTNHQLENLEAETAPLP
UniProt P33533, whole entry: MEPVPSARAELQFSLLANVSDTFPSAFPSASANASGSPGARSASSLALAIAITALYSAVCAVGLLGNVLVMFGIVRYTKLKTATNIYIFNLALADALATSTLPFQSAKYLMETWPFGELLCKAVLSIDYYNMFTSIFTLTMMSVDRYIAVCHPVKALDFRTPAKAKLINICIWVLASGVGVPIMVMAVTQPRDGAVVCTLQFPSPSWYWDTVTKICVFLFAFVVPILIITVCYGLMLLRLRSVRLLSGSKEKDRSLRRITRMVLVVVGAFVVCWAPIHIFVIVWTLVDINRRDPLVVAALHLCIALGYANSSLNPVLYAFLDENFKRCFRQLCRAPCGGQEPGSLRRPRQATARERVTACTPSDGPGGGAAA
UniProt P41145, whole entry: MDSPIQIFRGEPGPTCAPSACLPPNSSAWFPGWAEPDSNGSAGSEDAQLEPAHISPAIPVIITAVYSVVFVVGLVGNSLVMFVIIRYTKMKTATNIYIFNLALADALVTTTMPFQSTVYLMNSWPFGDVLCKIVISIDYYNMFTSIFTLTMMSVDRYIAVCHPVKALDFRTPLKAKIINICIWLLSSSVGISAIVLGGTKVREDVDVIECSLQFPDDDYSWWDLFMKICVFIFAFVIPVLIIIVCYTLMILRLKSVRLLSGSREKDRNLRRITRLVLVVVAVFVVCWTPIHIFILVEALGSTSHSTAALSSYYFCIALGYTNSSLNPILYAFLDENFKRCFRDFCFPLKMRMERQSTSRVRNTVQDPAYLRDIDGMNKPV

What was measured:
[1] = target: human NOP receptor (Homo sapiens (Human), UniProt P41146); test: [35S]GTPγS binding assay, NOP receptor; conditions: single concentration (10 μM) versus the standard nociceptin
Protocol: (§1) Cell Culture: C6 glioma cells stably expressing the rat MOR (C6μ) or DOR (C6δ) were grown in Dulbecco's modified eagle medium (DMEM) supplemented with 10% fetal bovine serum (FBS), 90 units/ml penicillin, 90 μg/ml streptomycin, and 0.5 mg/ml geneticin. Chinese hamster ovary cells stably expressing the human KOR (CHOκ) or human NOP receptor CHO-NOP were maintained similarly, except that DMEM-F12 medium was used. All cells were grown under 5% CO2 at 37° C.
(§2) Preparation of Cell Membranes: Cells were washed three times with PBS and detached from plates using harvesting buffer (20 mM HEPES, pH 7.4, 150 mM NaCl, and 0.68 mM EDTA). After centrifugation at 200×g for 3 min, the cell pellet was resuspended in 50 mM Tris-HCl, pH 7.4 and homogenized with a Tissue Tearor (Biospec Products, Inc). The homogenate was pelleted at 20,000×g for 20 min at 4° C. and the pellet resuspended in 50 mM Tris-HCl, pH 7.4 and re-homogenized. The final pellet was resuspended in 50 mM Tris-HCl, pH 7.4 and frozen in aliquots at −80° C. Protein concentration was determined using the BCA protein assay.
(§3) [^35S]GTPγS Binding Assays: As described previously (Traynor and Nahorski, 1995), membranes (20 μg) from cells expressing MOR, DOR, KOR or NOP receptors are incubated in 20 mM Tris-HCl, pH 7.4, 5 mM MgCl2, 100 mM NaCl, 2.2 mM dithiothreltol (prepared freshly), 30 μM GDP, 0.1 nM [^35S]GTPγS, with or without 10 μM of test compound or 10 μM standard (DAMGO, SNC80, U50488H or N/OFQ as appropriate) or H2O for 60 min at 25° C. Samples are filtered through GF/C glass-fiber filtermats mounted on a Brandel cell harvester and rinsed four times with ice-cold 50 mM Tris-HCl, pH 7.4 containing 5 mM MgCl2, and 100 mM NaCl. Filtermats are processed as described for ligand binding above.
(§4) In a measure of functional activity, selected compounds have been evaluated in the [^35S]GTPγS assay in the same cell lines used for the binding assays (Table 2). Assays were performed as previously described by Traynor and Nahorski.^21 Agonist efficacy at MOR, KOR and NOP receptors was determined at a single concentration (10 μM) in comparison to the standard selective agonists DAMGO (MOR), and U69593 (KOR) and nociceptin (NOP) and antagonist Ke values determined against these standard agonists. For example, both 22, R=Ph (Ke(MOR) 0.47 nM, Ke(KOR) 0.41 nM) and 7a, R=Ph (Ke(MOR) 0.47 nM, Ke(KOR) 0.27 nM) are antagonists at MOR and KOR and have partial agonist activity at NOP receptors (40% and 14% of nociceptin's efficacy). 30, R=Ph also has no efficacy at MOR and KOR and is a partial agonist (57% of nociceptin) at NOP receptors.

[2] = target: T1, rat MOR (Rattus norvegicus (Rat), UniProt P33535); test: [35S]GTPγS binding assay, mu receptor; conditions: for Mu % stim (efficacy): single concentration (10 μM) versus the standard DAMGO; for Mu antagonist potency Ke / Kb: against standard agonist DAMGO; for Kb: read-out: Mu antagonist potency Ke
Protocol: as §1, §2, §3, §4

[3] = target: T1, rat MOR; test: Ligand binding assay, [3H]diprenorphine, mu (MOP) receptor; conditions: read-out: Binding affinities (Ki) Mu, membranes of C6 glioma cells expressing rat receptor
Protocol: as §1
(§5) Preparation of Cell Membranes: Cells were washed three times with PBS and detached from plates using harvesting buffer (20 mM HEPES, pH 7.4, 150 mM NaCl, and 0.68 mM EDTA). […] Protein concentration was determined using the BCA protein assay.
(§6) Ligand Binding Assays: As Alt et al., 2002. […] Nonspecific binding is measured using 10 μM naloxone (MOR, DOR, KOR) or N/OFQ (NOP). […] Each filtermat in a heat-sealed bag, is counted in a Wallac 1450 MicroBeta Liquid Scintillation and Luminescence Counter. IC50 values for test compounds are determined from concentration effect curves and converted to Ki values using GraphPad Prism.
(§7) Binding affinities at MOPr, KOPr, DOPr and NOPr were measured using [^3H]diprenorphine (MOP, KOP, DOP) and [^3H]N/OFQ (NOP) binding to membranes derived from CHO cells transfected with human receptors (KOP and NOP receptors) and C6 glioma cells stably expressing rat receptors (MOP and DOP). […]

[4] = target: rat DOR (Rattus norvegicus (Rat), UniProt P33533); test: Ligand binding assay, [3H]diprenorphine, delta (DOP) receptor; conditions: read-out: Binding affinities (Ki) Delta, membranes of C6 glioma cells expressing rat receptor
Protocol: as §1, §5, §6, §7

[5] = target: human KOR (Homo sapiens (Human), UniProt P41145); test: [35S]GTPγS binding assay, kappa receptor; conditions: for Kappa % stim (efficacy): single concentration (10 μM) versus the standard U69,593
Protocol: as §1, §2, §3, §4

[6] = Anti-writhing assay (abdominal stretch assay); conditions: in vivo
Protocol: (§8) Furthermore, it has been confirmed that 7a, R=Ph, 22, R=Ph and 30, R=Ph display no opioid agonist actions in vivo, in assays where even a low efficacy opioid agonist would be expected to be active. Thus they display no agonist activity in the anti-writhing assay (abdominal stretch assay) or in the 50° C. tail withdrawal assay.

[7] = Warm water tail withdrawal assay; conditions: in vivo, 50° C.
Protocol: Mouse Warm Water Tall Withdrawal Assay. For all of the tail-withdrawal data a minimum of five mice is used in each group. Each mouse (is placed in a cylindrical restraint (Harvard Apparatus, South Natick, Mass., USA) with the tail fully exposed. Approximately one-third of the tail is immersed in water at 48° C. and latency to tail-withdrawal is measured (Janssen et al, 1963). The low temperature is to ensure that compounds with at delta or kappa agonism can be identified. Standards, test compounds or vehicle (usually sterile water) are be administered i.p. and tail-withdrawal latencies measured 25 min later. For antagonist studies compounds are administered 30 min before the first agonist dose. Baseline latencies vehicle injected mice) are typically 2-4 s. A cut-off latency of 20 s is used to prevent injury to the tail.
as §8

| Compound | NOP % stim (efficacy) [1] [%] | Mu % stim (efficacy) [2] [%] | Kappa % stim (efficacy) [5] [%] | Opioid agonist activity in the anti-writhing assay [6] | Opioid agonist activity in the tail withdrawal assay [7] | also measured |
| --- | --- | --- | --- | --- | --- | --- |
| CO[C@]12CC[C@@]3(C[C@]1(C)[C@H](O)c1cccc(C)c1)[C@H]1Cc4ccc(O)c5c4[C@@]3(CCN1CC1CC1)[C@H]2O5 | 21 | 9 |  |  |  |  |
| CO[C@]12C=C[C@@]3(C[C@@H]1[C@H](O)c1ccccc1)[C@H]1Cc4ccc(O)c5c4[C@@]3(CCN1CC1CC1)[C@H]2O5 |  |  |  |  |  | Ki [3]: 4.03 nM; Ki [4]: 3.21 nM |
| CO[C@]12CC[C@@]3(C[C@]1(C)[C@H](O)c1ccc(F)cc1)[C@H]1Cc4ccc(O)c5c4[C@@]3(CCN1CC1CC1)[C@H]2O5 | 13 | 17 |  |  |  |  |
| CO[C@]12C=C[C@@]3(C[C@]1(C)[C@H](O)c1cccc(C)c1)[C@H]1Cc4ccc(O)c5c4[C@@]3(CCN1CC1CC1)[C@H]2O5 | 43 | 22 | 6 |  |  |  |
| CO[C@]12CC[C@@]3(C[C@@H]1[C@H](O)c1ccccc1)[C@H]1Cc4ccc(O)c5c4[C@@]3(CCN1CC1CC1)[C@H]2O5 |  |  |  |  |  | Ki [3]: 1.25 nM |
| CO[C@]12CC[C@@]3(C[C@@H]1[C@](C)(O)c1ccccc1)[C@H]1Cc4ccc(O)c5c4[C@@]3(CCN1CC1CC1)[C@H]2O5 | 14 |  |  | no agonist activity | no agonist activity | Mu antagonist potency Ke [2]: 0.47 nM; Kb [2]: 0.47 nM; Kappa antagonist potency Ke ([5]; against standard agonist U69593): 0.27 nM |
| CO[C@]12C=C[C@@]3(C[C@]1(C)[C@H](O)c1ccc(F)cc1)[C@H]1Cc4ccc(O)c5c4[C@@]3(CCN1CC1CC1)[C@H]2O5 |  |  |  |  |  | Ki [4]: 0.47 nM |
| CO[C@]12CC[C@@]3(C[C@@H]1[C@@](C)(O)c1ccncc1)[C@H]1Cc4ccc(O)c5c4[C@@]3(CCN1CC1CC1)[C@H]2O5 | 4 | 1 | −17 |  |  |  |
| CO[C@]12C=C[C@@]3(C[C@]1(C)[C@H](O)c1ccccc1)[C@H]1Cc4ccc(O)c5c4[C@@]3(CCN1CC1CC1)[C@H]2O5 |  | 4 |  | no agonist activity | no agonist activity | NOP % stim (efficacy) ([1]; listed as 22, R = Ph): 39%; NOP % stim (efficacy) ([1]; listed as 22, R=Ph): 40%; Mu antagonist potency Ke [2]: 0.47 nM; Kb [2]: 0.47 nM |
| CO[C@]12CC[C@@]3(C[C@]1(C)[C@H](O)c1ccccc1)[C@H]1Cc4ccc(O)c5c4[C@@]3(CCN1CC1CC1)[C@H]2O5 | 57 | 2 | 0 | no agonist activity | no agonist activity | Efficacy at MOR (in words) ([2]; [35S]GTPγS, 10 μM versus DAMGO): no efficacy; Efficacy at KOR (in words) ([5]; [35S]GTPγS, 10 μM versus U69593): no efficacy |
